# Only a part is listed here, and it is no random draw. Active and inactive are the calls of the source. Rule as the data show it: active = inhibition above about 49%; inactive = the rest.
# Chains of the proteins cited; added tags and fusions are not shown.
# UniProt Q96RJ0, whole entry: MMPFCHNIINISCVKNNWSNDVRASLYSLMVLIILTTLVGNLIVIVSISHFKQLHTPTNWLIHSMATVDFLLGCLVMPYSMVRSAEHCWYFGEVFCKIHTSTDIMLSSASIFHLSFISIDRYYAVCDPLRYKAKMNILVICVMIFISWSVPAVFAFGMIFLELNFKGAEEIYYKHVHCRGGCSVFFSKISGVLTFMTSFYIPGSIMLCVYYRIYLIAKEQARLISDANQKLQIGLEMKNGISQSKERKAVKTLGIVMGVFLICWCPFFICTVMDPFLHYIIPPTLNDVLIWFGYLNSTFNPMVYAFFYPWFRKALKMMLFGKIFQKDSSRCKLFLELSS
# Target: Trace amine-associated receptor 1 (Homo sapiens) (UniProt Q96RJ0)
# Experiment: TAAR1 receptor blockers, repeat testing – cell-based, fluorescence, confirmation (AID 651785);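 also: CHO-Ga16 host cells challenged with agonist PEA near its EC80; 0% = agonist at EC80 plus vehicle and 100% = vehicle with no agonist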
# Details: TAAR1-expressing cells, fluorescence antagonist read-out; at 3 µM; hits give high values
row,Structure (SMILES),inhibition
1,O=c1[nH]c2ccccc2n1C1CCN(C(c2cccs2)c2nnnn2C2CCCCC2)CC1 (stereo not drawn),inactive: 45.1%
2,CCCCn1nnnc1C(c1ccccc1)N1CCC(n2c(=O)[nH]c3ccccc32)CC1 (stereo not drawn),inactive: 44.7%
3,O=c1[nH]c2ccccc2n1C1CCN(C(c2cccs2)c2nnnn2C2CCCC2)CC1 (stereo not drawn),inactive: 43.5%
4,O=c1[nH]c2ccccc2n1C1CCN(C(c2ccccc2)c2nnnn2C2CCCC2)CC1 (stereo not drawn),inactive: 30.2%
5,O=c1[nH]c2ccccc2n1C1CCN(C(c2ccnc3ccccc23)c2nnnn2C2CCCCC2)CC1 (stereo not drawn),inactive: 45.7%
6,COc1cccc(C(c2nnnn2C2CCCC2)N2CCC(n3c(=O)[nH]c4ccccc43)CC2)c1OC (stereo not drawn),inactive: 46.9%
7,CCCCn1nnnc1C(c1cc2ccccc2o1)N1CCC(n2c(=O)[nH]c3ccccc32)CC1 (stereo not drawn),inactive: 37.5%
8,O=c1[nH]c2ccccc2n1C1CCN(C(c2ccccc2)c2nnnn2C2CCCCC2)CC1 (stereo not drawn),inactive: 47.5%

# Reference: PubChem BioAssay AID651785 (The Scripps Research Institute Molecular Screening Center, 2012)
